Drawing on PubChem BioAssay AID720707 (National Center for Advancing Translational Sciences (NCATS), 2013), this text covers activation for 29 compounds.

By UniProt entry, the sequences of proteins in these tests, tags left out. Where a name states a change or a piece, a line headed by the entry shows the natural chain unless it says otherwise.
UniProt O95398: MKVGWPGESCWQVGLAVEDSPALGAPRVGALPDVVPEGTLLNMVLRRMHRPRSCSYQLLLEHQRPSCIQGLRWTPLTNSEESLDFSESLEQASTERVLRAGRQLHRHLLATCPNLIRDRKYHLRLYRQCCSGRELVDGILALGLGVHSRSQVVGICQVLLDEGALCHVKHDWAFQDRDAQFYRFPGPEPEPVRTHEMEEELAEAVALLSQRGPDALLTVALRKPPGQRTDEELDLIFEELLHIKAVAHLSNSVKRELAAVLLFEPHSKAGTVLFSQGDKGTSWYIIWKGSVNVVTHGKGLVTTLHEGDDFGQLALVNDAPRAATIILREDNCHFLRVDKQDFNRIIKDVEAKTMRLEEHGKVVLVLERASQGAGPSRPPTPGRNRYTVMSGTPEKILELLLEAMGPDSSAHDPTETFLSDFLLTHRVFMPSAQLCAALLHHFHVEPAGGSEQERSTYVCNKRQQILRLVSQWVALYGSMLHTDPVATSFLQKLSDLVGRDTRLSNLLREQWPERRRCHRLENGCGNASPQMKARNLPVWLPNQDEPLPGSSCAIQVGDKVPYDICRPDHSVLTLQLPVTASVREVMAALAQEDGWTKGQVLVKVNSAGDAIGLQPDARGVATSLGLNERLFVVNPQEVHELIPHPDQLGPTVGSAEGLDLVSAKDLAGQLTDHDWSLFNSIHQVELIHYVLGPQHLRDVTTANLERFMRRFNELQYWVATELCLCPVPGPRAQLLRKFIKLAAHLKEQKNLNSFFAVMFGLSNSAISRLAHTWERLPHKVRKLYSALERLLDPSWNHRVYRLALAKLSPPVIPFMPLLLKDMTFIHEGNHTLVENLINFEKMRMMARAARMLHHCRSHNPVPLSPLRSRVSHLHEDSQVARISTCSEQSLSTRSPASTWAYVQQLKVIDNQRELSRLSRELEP

Only a part is listed here, and it is no random draw. The source made the active and inactive calls. The call rests on the fitted dose curve; in most records, active means well fitted activation curve with a large enough effect; inconclusive means small, poorly fitted or top-dose-only effect; inactive means no such curve, though single readings can be large or run the other way.

The target in this assay is Rap guanine nucleotide exchange factor 3 (Homo sapiens) (UniProt O95398). Briefly: qHTS for Agonist of cAMP-regulated guanine nucleotide exchange factor 3 (EPAC1): primary screen. Further: nearly all actives have a fitted effect of over 60% in size. The conditions noted are these: biochemical assay, 100% = response to 6.5 mM cAMP; at 154 µM (top of the series). The text has this: In multi-cellular eukaryotic organisms, the effects of cAMP are transduced by two ubiquitously-expressed intracellular cAMP receptors, the classic protein kinase A/cAMP-dependent protein kinase (PKA/cAPK) and the more recently discovered exchange protein directly activated by cAMP/cAMP-regulated guanine nucleotide exchange factor (EPAC/cAMP-GEF). Both PKA and EPAC are ubiquitously expressed in all tissues, and an increase in intracellular cAMP levels will lead to the activation of both PKA and EPAC. Therefore, careful dissections of the individual role and relative contribution of EPAC and PKA within the overall cAMP signaling in various model systems are critical for further elucidating the mechanism of cAMP signaling. To date no EPAC-specific antagonists and agonist, as well as isoform-specific agonists have been reported, and developing EPAC-specific pharmacological probes to determine the physiological functions that EPAC play in the overall cAMP-mediated signaling remains a major challenge within the research field. Furthermore, identified regulators of EPAC may lead to new mechanism-based therapeutic strategies specifically targeting the EPAC / cAMP-signaling components as EPAC has been implicated to play important roles in major human pathological conditions such as diabetes, heart disease, and cancer.
This qHTS will be used to screen the Molecular Libraries Small Molecule Repository (MLSMR) as a concentration-titration series using the NCGC unique quantitative screening (qHTS) platform to find activators for EPAC1. In addition, this assay will also be used as a counterscreen for the EPAC2 qHTS. This fluorescent based assay is developed and validated for EPAC1 that measures exchange using EPAC effector Rap1 complex with BODIPY-GDP, a GDP analog with a tethered fluorophores. Activators are identified by monitoring the change in fluorescence signal as the exchanged free BODIPY-GDP has a reduced fluorescence compared to Rap1-bound BODIPY-GDP. Increase in signal (activation) is the desired outcome for the EPAC1 agonist while no activity in this assay is desired for the EPAC2 agonist counterscreen.
[1] de Rooij, J., Zwartkruis, F. J., Verheijen, M. H., Cool, R. H., Nijman, S. M., Wittinghofer, A., and Bos, J.L. (1998) Nature 396, 474-477
NIH Chemical Genomics Center [NCGC]
NIH Molecular Libraries Probe Centers Network [MLPCN]
Assay Submitter (PI): Xiaodong Cheng, The University of Texas Medical Branch
Briefly, three uL of reagents (100 nM EPAC1, 250 nM RAP1B-BODIPY-GDP, 50 uM GDP) were dispensed into a 1536-well Greiner black solid-bottom medium binding assay plate. Controls and test compounds (23 nL) were transferred to the plate via a Kalypsys pin tool equipped with a 1536-pin array. The plates were centrifuged at 1,000 rpm for 15 seconds followed by 5 minute incubation at room temperature. The assay plates were read at 5 minute intervals for 30 minutes in the ViewLux plate reader using 480nm excitation and 540nm emission filters. The results were normalized to the agonist positive control of 6.5 mM cAMP.
(In general: Quantitative high-throughput screening tests each substance at several concentrations.)
In the case of `COc1ccccc1OP(=O)(Nc1ccc(C)cn1)Oc1ccccc1OC`, the activation was inactive: 5.89%. For `Cc1ccc(OP(=O)(Nc2nccs2)Oc2ccc(C)cc2)cc1`, the activation was inactive: -1.46%.

As for `Clc1ccc(Cl)c(NC2=NCC(CBr)S2)c1` (centres undefined), the activation is inactive: -4.49%.

Turning to `CN1CCCC(OC(=O)C(c2ccccc2)c2ccccc2)C1` (centres undefined), the activation is inactive: 1.86%. Regarding `NC(=O)c1cc([N+](=O)[O-])cc([N+](=O)[O-])c1N`, the activation is inactive: 0.237%. With `CN(C(=O)Cc1ccc(Cl)c(Cl)c1)[C@H]1CCCC[C@H]1N1CCCC1` the figure was inactive: 2.01%.

Take `Cc1ccc(N/C(=N/P(=O)(N2CCOCC2)N2CCOCC2)N2CCOCC2)cc1`: the activation was inactive: -0.426%. Next, `O=[N+]([O-])C1C(O)C(O)C([N+](=O)[O-])C(O)C1O` (centres undefined): inactive: -13.5%; `CC(C)CC(=O)NC(Sc1ccc(Cl)cc1)C(Cl)(Cl)Cl` (centres undefined): inactive: 21.6%; `Nc1cc(N)c2nonc2c1[N+](=O)[O-]`: inactive: 3.41%. Regarding `Oc1ccccc1CNc1ccccn1`, the activation is inactive: 6.96%. Regarding `O=C(NC(Sc1ccncn1)C(Cl)(Cl)Cl)c1ccccc1` (centres undefined), the activation was inactive: -4.84%. With `CCOP(=O)(Nc1ccccc1)OCC` the figure was inactive: -9.95%; with `Cc1cc(SC(NC(=O)c2ccc(F)cc2)C(Cl)(Cl)Cl)ncn1` (centres undefined), inactive: -2.02%. Next, `CN(C(=O)Cc1ccc(Cl)c(Cl)c1)[C@H]1CCCC[C@@H]1N1CCCC1`: inactive: 6.68%; `Cc1ccc(NP(=O)(Oc2ccccc2F)Oc2ccccc2F)nc1`: inactive: 9.44%. `O=C(O)c1ccccc1[As](=O)(O)O`: the activation was inactive: 5.35%.

Take `CC(=O)Nc1ccc([As](=O)(O)O)cc1`: the activation is inactive: -2.05%. For `CCCC1OP(N)(=O)OCC1CC` (centres undefined), the activation is inactive: -0.556%. Consider `CN(C)P(=O)(N(C)C)n1c(Nc2ccccc2)nnc1-c1ccccc1`, for which the activation was inactive: 6.47%.

Turning to `O=P(Nc1nc2ccc(Cl)cc2s1)(c1ccccc1)c1ccccc1`, the activation is inactive: 9.73%. For the compound `CCN(N=Nc1nonc1N)c1nonc1N`, the activation was inactive: 5.01%. Next, `Nc1cccc2ccc([As](=O)(O)O)cc12`: inactive: -9.95%; `O=C(Nc1cc([As](=O)(O)O)ccc1O)c1ccccc1`: inactive: -1.46%. As for `O=P1(N(CCCl)CCCl)OCCCS1` (centres undefined), the activation was inactive: 9.55%. With `O=[N+]([O-])c1cccc(NC2=NCC(CBr)S2)c1` (centres undefined) the figure was inactive: 3.32%; with `COC(=O)C1(C)COP(=O)(Nc2ccccc2)OC1` (centres undefined), inactive: -4.24%; with `O=C(O)CNc1ccc([As](=O)(O)O)cc1`, inactive: -2.46%.

Consider `CC(C)(C)C(=O)NC(Sc1ccncn1)C(Cl)(Cl)Cl` (centres undefined), for which the activation is inactive: -17.1%.
